Assay results: PubChem BioAssay AID1645853 (Buhrlage Lab, Dana-Farber Cancer Institute and Novartis …, 2021)
This is a selection; strong and weak results do not stand in their true shares. The source made the active and inactive calls. Cut-off read from the data, not from the text of the source: active = inhibition above about 30%; inactive = the rest.

Amino acid sequences for entries named in this document (tags omitted).
UniProt P40818, whole entry: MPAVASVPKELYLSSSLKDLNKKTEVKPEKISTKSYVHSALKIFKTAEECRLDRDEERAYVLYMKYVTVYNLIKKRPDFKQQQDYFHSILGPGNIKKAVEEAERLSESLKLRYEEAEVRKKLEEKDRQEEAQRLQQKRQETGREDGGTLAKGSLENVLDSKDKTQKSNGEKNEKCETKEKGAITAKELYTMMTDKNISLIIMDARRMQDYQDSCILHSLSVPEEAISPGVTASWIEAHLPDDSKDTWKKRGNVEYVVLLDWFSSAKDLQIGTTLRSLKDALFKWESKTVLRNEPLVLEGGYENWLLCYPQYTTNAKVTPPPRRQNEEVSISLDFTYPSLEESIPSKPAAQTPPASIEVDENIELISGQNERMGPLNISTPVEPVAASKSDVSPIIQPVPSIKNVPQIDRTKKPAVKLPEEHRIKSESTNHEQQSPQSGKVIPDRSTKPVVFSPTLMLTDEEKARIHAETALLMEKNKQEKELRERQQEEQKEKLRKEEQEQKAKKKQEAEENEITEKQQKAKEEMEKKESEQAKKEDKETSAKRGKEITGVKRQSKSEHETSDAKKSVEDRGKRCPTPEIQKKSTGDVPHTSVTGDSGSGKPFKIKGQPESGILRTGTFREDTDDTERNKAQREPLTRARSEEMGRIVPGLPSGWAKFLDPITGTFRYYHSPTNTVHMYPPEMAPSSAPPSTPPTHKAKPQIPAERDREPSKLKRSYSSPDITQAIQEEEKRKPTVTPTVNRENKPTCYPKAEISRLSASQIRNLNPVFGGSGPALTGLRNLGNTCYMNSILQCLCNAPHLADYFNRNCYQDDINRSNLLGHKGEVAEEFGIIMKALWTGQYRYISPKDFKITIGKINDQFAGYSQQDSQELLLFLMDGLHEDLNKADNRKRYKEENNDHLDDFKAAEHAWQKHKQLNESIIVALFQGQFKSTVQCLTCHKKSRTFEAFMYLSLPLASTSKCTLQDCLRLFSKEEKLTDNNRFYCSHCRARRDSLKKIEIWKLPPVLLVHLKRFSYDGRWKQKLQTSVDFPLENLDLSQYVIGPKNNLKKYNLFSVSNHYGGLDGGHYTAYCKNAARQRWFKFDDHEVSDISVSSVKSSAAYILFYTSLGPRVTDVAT

These molecules were tested against Ubiquitin carboxyl-terminal hydrolase 8 (Homo sapiens) (UniProt P40818) (assay: inhibitors of human USP8 deubiquitinase (AID 1645853)). Conditions: purified USP8, Ub-rhodamine cleavage fluorescence, 30 min; at 20 µM; hits give high values.
For `O=C(NCC1(N2CCCCC2)CCCCC1)c1ccc(F)cc1`, the inhibition was inactive: -28.8%. `CC1CN(CCc2ccccc2)CCC1=O` (stereo not drawn) was tested, and the inhibition was inactive: 2.04%. In the case of `Cc1ccccc1C(=O)NCC1(N2CCOCC2)CCCCC1`, the inhibition is reported as inactive: -0.205%. For `O=C(NCC1(N2CCCCC2)CCCCC1)c1ccc2ncsc2c1`, the inhibition was inactive: 0.789%. With `Cc1cc(C(=O)NCC2(N3CCOCC3)CCCCC2)c2ccccc2n1` the inhibition was inactive: 17.4%. `O=C(NCC1(N2CCOCC2)CCCCC1)c1ccccc1Cl` was tested, and the inhibition was inactive: -8.24%. `N#Cc1ccc(C(=O)NCC2(N3CCCCC3)CCCCC2)cc1` was tested, and the inhibition was inactive: 0.00568%. In the case of `CN(C)c1ccc(C(=O)NCC2(N3CCCCC3)CCCCC2)cc1`, the inhibition is reported as inactive: 5.04%.
